The source of these data is US20130231292A1, “Synergistic anti-proliferation activity of TAS-108 with mTOR inhibitors against cancer cells” (priority 2012, published 2013).

Assay [1] deals with 60 cancer cell lines of different tissues of origin. Kind of assay: Non-bias 5x4 checkerboard combination screen of TAS108 with 30 chemotherapeutic agents.
In the next assay the test system is HS 578T. Kind of assay: Combination screen of TAS-108 with a second compound, CellTiter-Glo. As to conditions: in combination with TAS-108. For orientation: ATP-based viability assays read luminescence as a measure of living cells.
A further assay has as its system MCF7. The description is as above. As to conditions: MCF7, in combination with TAS-108.
In the next assay the test system is MDA-MB-231. The assay is described as above. As to conditions: MDA-MB-231, in combination with TAS-108.
The next assay concerns MDA-MB-468. Described as above. The conditions noted are these: MDA-MB-468, in combination with TAS-108.
The next assay deals with T-47D. The assay is described as above. As to conditions: in combination with TAS-108.
Assay [2] concerns human mammary carcinoma cell lines. Kind of assay: Combination screen of TAS-108 with a second compound, all six breast lines. As to conditions: number of the six breast cell lines with synergy, in combination with TAS-108.
In another assay the test system is BT-549. The assay can be described thus: Combination screen of TAS-108 with a second compound, CellTiter-Glo. Format: cell-based, human.

As to `Nc1nc(Cl)nc2c1ncn2[C@H]1C[C@H](O)[C@@H](CO)O1` [Cladribine], the “ES: synergistic effect size” value in assay [1] was −0.018.

Take `Nc1nc(Cl)nc2c1ncn2[C@@H]1O[C@H](CO)[C@@H](O)[C@@H]1F` [Clofarabine]: the “ES: synergistic effect size” value in assay [1] came out at 0.009.

Regarding `Cc1nc(Nc2ncc(C(=O)Nc3c(C)cccc3Cl)s2)cc(N2CCN(CCO)CC2)n1` [Dasatinib], the “ES: synergistic effect size” value in assay [1] is reported as 0.022.

With `C#Cc1cccc(Nc2ncnc3cc(OCCOC)c(OCCOC)cc23)c1` [Erlotinib], the “Synergistic effect of TAS 108 paired with compound” value (from here on “Synergistic effect … with compound”) with HS 578T, in the assay with MCF7, in the assay on MDA-MB-231, in the assay on MDA-MB-468 and in the assay with T-47D was “N” each time.

Regarding `CS(=O)(=O)CCNCc1ccc(-c2ccc3ncnc(Nc4ccc(OCc5cccc(F)c5)c(Cl)c4)c3c2)o1` [Lapatinib], the “Synergistic effect … with compound” value in the assay on MCF7 and in the assay with T-47D was “N” in each case. The “Synergy #” value in assay [2] is 0.

On to `COc1nc(N)nc2c1ncn2[C@@H]1O[C@H](CO)[C@@H](O)[C@@H]1O` [Nelarabine], for which the “ES: synergistic effect size” value in assay [1] is −0.003.

As to `CCN(CC)CCNC(=O)c1c(C)[nH]c(/C=C2\C(=O)Nc3ccc(F)cc32)c1C` [Sunitinib], the “Synergistic effect … with compound” value with BT-549, with MCF7, with MDA-MB-231, in the assay on MDA-MB-468 and with T-47D was “N” each time. Besides, in assay [2], the “Synergy #” value is given as 0.

Turning to `CC1=C(/C=C/C(C)=C/C=C/C(C)=C/C(=O)O)C(C)(C)CCC1` [Tretinoin], in assay [1], the “ES: synergistic effect size” value is 0.
